Measured values from publication PMC9168620, “Genetic validation of Aspergillus fumigatus phosphoglucomutase as a viable therapeutic target in invasive aspergillosis” (The Journal of Biological Chemistry, 2022).

Amino acid sequences for entries named in this document (tags omitted).
UniProt P36871, whole entry: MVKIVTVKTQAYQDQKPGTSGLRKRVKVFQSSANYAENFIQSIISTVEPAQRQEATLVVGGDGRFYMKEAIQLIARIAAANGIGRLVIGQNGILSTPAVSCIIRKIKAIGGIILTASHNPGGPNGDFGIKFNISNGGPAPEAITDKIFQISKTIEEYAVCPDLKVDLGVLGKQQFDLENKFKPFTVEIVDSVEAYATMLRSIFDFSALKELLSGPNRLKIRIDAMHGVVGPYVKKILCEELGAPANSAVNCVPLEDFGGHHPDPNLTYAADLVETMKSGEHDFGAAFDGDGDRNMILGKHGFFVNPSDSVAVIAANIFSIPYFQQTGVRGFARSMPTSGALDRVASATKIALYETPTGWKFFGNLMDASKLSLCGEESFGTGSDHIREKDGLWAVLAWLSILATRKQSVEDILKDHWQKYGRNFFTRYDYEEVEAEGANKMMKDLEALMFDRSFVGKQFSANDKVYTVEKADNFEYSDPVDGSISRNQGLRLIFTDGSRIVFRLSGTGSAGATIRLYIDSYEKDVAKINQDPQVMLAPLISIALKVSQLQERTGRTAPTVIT

These molecules were tested against HsPGM (Homo sapiens, UniProt P36871) (assay: G6PDH coupled assay for PGM, HsPGM). Settings: read-out: IC50 HsPGM; HsPGM 5 nM, no preincubation; > values: highest concentration at which the compound can solubilize.
Format: biochemical

`O=c1ccsn1-c1cccc(C(F)(F)F)c1` and `O=c1ccsn1-c1ccccc1` cannot be ordered by IC50: > 100 µM for the first, > 400 µM for the second.

`CCOC(=O)c1ccc(-n2sccc2=O)cc1` and `COC(=O)c1ccc(-n2sccc2=O)cc1` cannot be ordered by IC50: > 100 µM for the first, > 100 µM for the second.

In the case of `O=c1ccsn1-c1ccc(F)c(Cl)c1`, the IC50 is reported as > 100 µM.
